Test results taken from patent publication US20050180997A1, “Drug delivery system” (priority 2004, published 2005).

Experiments:
Assay type in all cases: cell-based
SK-BR3 cells [1] = experiment: Binding of coumarin-6 labeled emulsions to fixed cells, confocal microscopy; conditions: 1 hour incubation at room temperature, dilution 1:1000, fixed cells
Method: However, in order to visualize the blank emulsion also, the emulsions were labeled with lipophilic fluorescent probe coumarin-6 (Polyscience Inc, Warrington, Pa.) in a ratio of 1:1000 coumarin to Lipoid E80 in the oil phase (7).
Cells were fixed on cover-slips, non-specific binding was blocked with 5% BSA. Incubation over 1 h with the labeled blank emulsion and immuno-emulsion (final dilution of 1:1000) was carried out at room temperature.
The cells were washed three times successively with PBS and then observed using Confocal microscope. A qualitative significant difference in binding to SK-BR3 cells between blank emulsion and the immuno-emulsion is observed as reflected by the difference in the intensity of the fluorescence.

SK-BR3 cells [2] = experiment: FACS binding of immuno-emulsion versus free trastuzumab; conditions: 1 hour
Method: For confirmation purposes, additional studies were performed using FACS analysis (Fluorescent activated cell sorting analysis). […] The cells were washed with PBS three times successively and then FITC-conjugated secondary antibody was added (in a final dilution of 1:50). Cells were washed again with PBS and then were analyzed by FACS.

SK-BR3 cells [3] = experiment: Uptake study of coumarin-6 labeled emulsions, confocal microscopy; conditions: 37° C., 5, 15, 30 min
Method: SK-BR3 cells were incubated at 37° C. with either blank emulsion or immuno-emulsion labeled with coumarin-6, over different incubation times: 5, 15, 30 min.
Cells were washes with PBS three times successively and then were fixed and visualized with Zeiss Confocal Microscope.

## immuno-emulsion: cationic emulsion containing N-(1-stearyl)-maleimide cross-linker conjugated to thiolated trastuzumab
SK-BR3 cells [1]
  binding to SK-BR3 cells (fluorescence intensity, qualitative): binds extensively
SK-BR3 cells [2]
  affinity extent compared to the same quantity of the free antibodies: around 5%
SK-BR3 cells [3]
  binding to cells in uptake study (qualitative): bound more strongly
